Assay results published in paper PMC9782539, “Synthesis, Characterization and Biological Evaluation of Benzothiazole–Isoquinoline Derivative” (Molecules, 2022).

Chains of the proteins cited; added tags and fusions are not shown.
UniProt P21396, whole entry: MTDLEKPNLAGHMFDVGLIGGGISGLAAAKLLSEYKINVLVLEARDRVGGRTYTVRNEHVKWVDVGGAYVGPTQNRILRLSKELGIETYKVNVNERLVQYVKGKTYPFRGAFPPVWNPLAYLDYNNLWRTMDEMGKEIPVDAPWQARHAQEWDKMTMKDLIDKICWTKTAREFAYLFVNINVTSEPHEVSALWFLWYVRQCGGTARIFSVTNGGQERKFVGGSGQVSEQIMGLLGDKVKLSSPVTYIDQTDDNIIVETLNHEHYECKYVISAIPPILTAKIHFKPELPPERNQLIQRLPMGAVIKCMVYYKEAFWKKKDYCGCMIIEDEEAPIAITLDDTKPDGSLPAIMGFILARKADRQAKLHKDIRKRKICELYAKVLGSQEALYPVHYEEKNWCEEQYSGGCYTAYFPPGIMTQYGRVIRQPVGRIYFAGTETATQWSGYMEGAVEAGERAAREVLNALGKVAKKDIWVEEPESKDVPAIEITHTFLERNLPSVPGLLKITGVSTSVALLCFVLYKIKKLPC

Target: T1, MAO–A (Rattus norvegicus, UniProt P21396)
T1 construct: the obtained SD rat liver mitochondrial concentrate was the experimental monoamine oxidase stock solution; from tissue; host or cells: male SD rat liver mitochondria
Test: MAO–A inhibitory activity (enzyme pre-incubated with pargyline)
Type: biochemical
Description: Male SD rats were sacrificed by decapitation, operated on ice, their livers were removed, and the liver surface was washed with precooled phosphate buffer. The liver was cut into pieces, and after washing (using PBS), 20 mL of 0.3 M sucrose buffer was added for homogenization. After fully homogenized, it was balanced by a tray balance. Low–temperature differential centrifugation was performed, and the obtained SD rat liver mitochondrial concentrate was the experimental monoamine oxidase stock solution, and was stored in a −80 °C refrigerator.
Added 25 µL of enzyme dilution solution and 25 µL of test derivatives (control group plus rasagiline, blank group plus 10% DMSO) to 96–well plate, incubated at 37 °C for 1 h, then 120 µL of substrate was added, 80 µL of chromogenic solution was added, incubated at 37 °C for 30 min, and its absorbance measured at 490 nm. In addition, in order to exclude the influence of protein, a protein control group was established, only the enzyme dilution was added, and the rest were replaced with PBS, and the absorbance value was detected at a wavelength of 490 nm. The inhibition rate of each concentration was substituted into the calculation software GraphPad Prism 8 to calculate the IC50 value.
The inhibition rate of each concentration was substituted into the calculation software GraphPad Prism 8 to calculate the IC50 value.

C#CCN(C)CCCOc1ccc(Cl)cc1Cl [Clorgyline, reference compound]
Inhibition Rate (%) MAO–A: 84.21%
